Experimental data taken from patent publication US12152047B2, “Anti-cancer gold compounds” (Royal Melbourne Institute of Technology, priority 2019, dated 2024).

What was measured:
Assay type in all cases: cell-based
Details in all cases: 48 h incubation, mean ± SD of three experiments
[1] = test system: A549 (lung) cancer cells; test: MTT assay (in vitro cytotoxicity), A549
Protocol: (§1) For all the assays, unless otherwise mentioned, stock solutions of the metal compounds were freshly prepared in DMSO (10 mM) and 1% DMSO in complete medium was used as a control.
(§2) The MTT [3-(4,5-dimethylthiazol-2-yl)-2,5-diphenyltetrazolium bromide] assay is based on the conversion of a yellow coloured MTT solution to purple formazan crystals by the active mitochondrial dehydrogenases of viable cells. Thus, the intensity of the produced purple colour is proportional to the number of viable cells. The cells were seeded in 96 well plates depending on cellular doubling time and were treated with solutions of the metal compounds (100 μM, 10 μm, 1 μM, 0.1 μM, 0.01 μM) after overnight incubation. The cells were further incubated for 48 h and the medium containing the test compounds was removed before addition of 100 μL MTT solution (5 mg/mL) in serum-free medium. After 4 h incubation in the dark at 37° C., the excess MTT solution was removed from the wells and 100 μL of DMSO was added to each well to solubilise the formed formazan crystals. The absorbance of formazan solution from each well was recorded using a Spectramax micro titre plate reader at 570 and 630 nm. […] For all the assays, stock solutions of gold compounds were prepared in DMSO (10 mM) and the final treatment concentrations (100 μM-0.01 μM) were made in complete growth medium.

[2] = test system: HT-1080 (bone, fibrosarcoma) cancer cells; test: MTT assay (in vitro cytotoxicity), HT-1080
Protocol: as §1, §2

[3] = test system: HeK-293 (normal) human embryonic kidney cells; test: MTT assay (in vitro cytotoxicity), HeK-293
Protocol: as §1, §2

[4] = test system: HeLa (cervical) cancer cells; test: MTT assay (in vitro cytotoxicity), HeLa
Protocol: as §1, §2

[5] = test system: PC3 (prostate) cancer cells; test: MTT assay (in vitro cytotoxicity), PC3
Protocol: as §1, §2

## [Au(PPh2py){κC-2-C6H4P(S)Ph2}] [Compound 4]
[1]
  IC50: > 50 µM
[2]
  IC50: 6.65 ± 0.35 µM
[3]
  IC50: 0.95 ± 0.2 µM
[4]
  IC50: 1.35 ± 0.23 µM
[5]
  IC50: 0.61 ± 0.08 µM

## [Au{PPh2(C6H4-3-SO3Na)}{κC-2-C6H4P(S)Ph2}] [Compound 3]
[1]
  IC50: > 50 µM
[2]
  IC50: 3.09 ± 0.16 µM
[4]
  IC50: 9.13 ± 0.82 µM
[5]
  IC50: 5.22 ± 0.22 µM
